# Target: C-domain of MALT1 (amino acids 329-824) (Homo sapiens (Human), UniProt Q9UDY8)
# Chains of the proteins cited; added tags and fusions are not shown. Residues count along the entry.
# UniProt Q9UDY8, 329-824: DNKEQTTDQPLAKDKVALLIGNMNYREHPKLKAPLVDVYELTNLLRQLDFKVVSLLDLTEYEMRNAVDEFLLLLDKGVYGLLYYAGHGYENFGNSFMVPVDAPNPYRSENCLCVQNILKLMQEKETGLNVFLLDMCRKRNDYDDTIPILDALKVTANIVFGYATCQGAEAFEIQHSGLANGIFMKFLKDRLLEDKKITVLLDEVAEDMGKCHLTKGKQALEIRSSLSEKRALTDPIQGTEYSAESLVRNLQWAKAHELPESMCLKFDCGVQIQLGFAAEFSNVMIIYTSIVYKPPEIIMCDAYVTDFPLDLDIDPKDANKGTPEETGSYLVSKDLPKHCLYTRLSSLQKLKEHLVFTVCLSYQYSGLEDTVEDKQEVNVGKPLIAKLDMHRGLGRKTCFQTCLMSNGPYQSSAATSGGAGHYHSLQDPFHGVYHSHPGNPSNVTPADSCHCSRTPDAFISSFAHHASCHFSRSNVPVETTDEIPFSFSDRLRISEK
# Assay: MALT1 biochemical assay (fluorescence lifetime enzyme activity assay)
# Conditions: 60 min pre-incubation, 2.5 nM enzyme, 1 μM peptide substrate
# Procedure: The readout parameter is the increase of fluorescence lifetime over time, proportional to enzyme activity.
# The assay employs a short peptide substrate labeled with the single fluorophore PT14 as a fluorescence lifetime probe sensitive to the cleavage state of the substrate (PT14: 6-(9-oxo-9H-acridin-10-yl)-hexanoate, AssayMetrics, UK). […] The assay buffer consists of 200 mM Tris/HCl at pH 7.5, 0.8 M Na citrate, 100 μM EGTA, 100 μM DTT and 0.05% (w/v) CHAPS. […] Test compounds were dissolved in 100% (v/v) DMSO or a mixture containing 90% (v/v) DMSO and 10% (v/v) H2O at a stock concentration of 100 mM. Serial dilutions of test compounds were prepared using either 100% (v/v) DMSO or a mixture containing 90% (v/v) DMSO and 10% (v/v) H2O.
row,IC50 [nM],Compound
1,4,"O=C(Nc1cnc(-n2nccn2)c(C(F)(F)F)c1)Nc1cnc2cc(Cl)nn2c1C1CCCO1 (centres unmarked) [Example 54, 1-(6-(2H-1,2,3-triazol-2-yl)-5-(trifluoromethyl)pyridin-3-yl)-3-(2-chloro-7-(tetrahydrofuran-2-yl)pyrazolo[1,5-a]pyrimidin-6-yl)urea]"
2,55,"CN1CCOCC1Cc1c(NC(=O)Nc2cnc(-n3nccn3)c(Cl)c2)cnc2cc(Cl)nn12 (centres unmarked) [Example 83, 1-(5-chloro-6-(2h-1,2,3-triazol-2-yl)pyridin-3-yl)-3-(2-chloro-7-((4-methylmorpholin-3-yl)methyl)pyrazolo[1,5-a]pyrimidin-6-yl)urea]"
3,8,"O=C(Nc1cnc(-n2nccn2)c(C(F)(F)F)c1)Nc1cnc2cc(Cl)nn2c1-c1ccco1 [Example 63, 1-(6-(2H-1,2,3-triazol-2-yl)-5-(trifluoromethyl)pyridin-3-yl)-3-(2-chloro-7-(furan-2-yl)pyrazolo[1,5-a]pyrimidin-6-yl)urea]"
4,2,"COc1ncc(NC(=O)Nc2cnc3cc(Cl)nn3c2[C@H](C)OC)cc1Cl [Example 9, (S)-1-(5-chloro-6-methoxypyridin-3-yl)-3-(2-chloro-7-(1-methoxyethyl)pyrazolo[1,5-a]pyrimidin-6-yl)urea]"
5,24,"COCCO[C@@H](C)c1c(NC(=O)Nc2ccnc(C(F)(F)F)c2)cnc2cc(Cl)nn12 [Example 41, (S)-1-(2-chloro-7-(1-(2-methoxyethoxy)ethyl)pyrazolo[1,5-a]pyrimidin-6-yl)-3-(2-(trifluoromethyl)pyridin-4-yl)urea]"
6,7,"COc1ncc(NC(=O)Nc2cnc3cc(Cl)nn3c2C2CCC(C)O2)cc1Cl (centres unmarked) [Example 87, 1-(5-chloro-6-methoxypyridin-3-yl)-3-(2-chloro-7-(5-methyltetrahydrofuran-2-yl)pyrazolo[1,5-a]pyrimidin-6-yl)urea]"
7,86,"COc1ncc(NC(=O)Nc2cnc3cc(Cl)nn3c2-c2ccncc2)cc1Cl [Example 69, 1-(5-chloro-6-methoxypyridin-3-yl)-3-(2-chloro-7-(pyridin-4-yl)pyrazolo[1,5-a]pyrimidin-6-yl)urea]"
8,8,"C[C@@H](c1c(NC(=O)Nc2cnc(-n3nccn3)c(Cl)c2)cnc2cc(Cl)nn12)N(C)C [Example 122, (S)-1-(5-chloro-6-(2H-1,2,3-triazol-2-yl)pyridin-3-yl)-3-(2-chloro-7-(1-(dimethylamino)ethyl)pyrazolo[1,5-a]pyrimidin-6-yl)urea]"
9,20,"C[C@H](c1c(NC(=O)Nc2cnc(-n3nccn3)c(Cl)c2)cnc2cc(Cl)nn12)N(C)C [Example 121, (R)-1-(5-chloro-6-(2H-1,2,3-triazol-2-yl)pyridin-3-yl)-3-(2-chloro-7-(1-(dimethylamino)ethyl)pyrazolo[1,5-a]pyrimidin-6-yl)urea]"
10,10,"CO[C@@H](C)c1c(NC(=O)Nc2ccnc(C(F)(F)F)c2)cnc2cc(C)nn12 [Example 6, (S)-1-(7-(1-methoxyethyl)-2-methylpyrazolo[1,5-a]pyrimidin-6-yl)-3-(2-(trifluoromethyl)pyridin-4-yl)urea]"
11,39,"O=C(Nc1cnc(-n2nccn2)c(Cl)c1)Nc1cnc2cc(Cl)nn2c1C1CC12CCOC2 (centres unmarked) [Example 68, 1-(5-chloro-6-(2H-1,2,3-triazol-2-yl)pyridin-3-yl)-3-(2-chloro-7-(5-oxaspiro[2.4]heptan-1-yl)pyrazolo[1,5-a]pyrimidin-6-yl)urea]"
12,3,"CCC(C)c1c(NC(=O)Nc2cnc(-n3nccn3)c(Cl)c2)cnc2cc(Cl)nn12 (centres unmarked) [Example 35, 1-(7-(sec-butyl)-2-chloropyrazolo[1,5-a]pyrimidin-6-yl)-3-(5-chloro-6-(2H-1,2,3-triazol-2-yl)pyridin-3-yl)urea]"
13,6,"COCC1(c2c(NC(=O)Nc3ccnc(C(F)(F)F)c3)cnc3cc(Cl)nn23)CCC1 [Example 51, 1-(2-chloro-7-(1-(methoxymethyl)cyclobutyl)pyrazolo[1,5-a]pyrimidin-6-yl)-3-(2-(trifluoromethyl)pyridin-4-yl)urea]"
14,2,"CC1(c2c(NC(=O)Nc3cnc(-n4nccn4)c(Cl)c3)cnc3cc(Cl)nn23)CC1 [Example 16, 1-(5-chloro-6-(2H-1,2,3-triazol-2-yl)pyridin-3-yl)-3-(2-chloro-7-(1-methylcyclopropyl)pyrazolo[1,5-a]pyrimidin-6-yl)urea]"
15,5,"CO[C@H](c1c(NC(=O)Nc2cnc(-n3nccn3)c(Cl)c2)cnc2cc(Cl)nn12)[C@@H](C)OC [Example 98, 1-(5-chloro-6-(2H-1,2,3-triazol-2-yl)pyridin-3-yl)-3-(2-chloro-7-((1R,2R)-1,2-dimethoxypropyl)pyrazolo[1,5-a]pyrimidin-6-yl)urea]"
16,71,"CN1CCOC(c2c(NC(=O)Nc3cnc(-n4nccn4)c(Cl)c3)cnc3cc(Cl)nn23)C1 (centres unmarked) [Example 116, 1-(5-chloro-6-(2H-1,2,3-triazol-2-yl)pyridin-3-yl)-3-(2-chloro-7-(4-methylmorpholin-2-yl)pyrazolo[1,5-a]pyrimidin-6-yl)urea]"
17,9,"O=C(Nc1cnc(-n2nccn2)c(Cl)c1)Nc1cnc2cc(Cl)nn2c1C1COCCO1 (centres unmarked) [Example 43, 1-(5-chloro-6-(2H-1,2,3-triazol-2-yl)pyridin-3-yl)-3-(2-chloro-7-(1,4-dioxan-2-yl)pyrazolo[1,5-a]pyrimidin-6-yl)urea]"
